Only a part is listed here, and it is no random draw. Inconclusive results are not listed. Active and inactive are the calls of the source. Calls come from the whole dose curve; as a rule, active = well fitted inhibition curve with a large enough effect; inconclusive = small, poorly fitted or top-dose-only effect; inactive = no such curve, though single readings can be large or run the other way.
What follows are compounds tested against Ubiquitin carboxyl-terminal hydrolase 1 (Homo sapiens) (UniProt O94782) (assay: Inhibitors of USP1/UAF1: Primary Screen). Details: recombinant USP1/UAF1, Ub-Rhodamine cleavage fluorescence; series mostly up to 57.1 µM; activity change, negative = inhibition: at the top concentration.
Source text: Deubiquitinating enzymes (DUBs) are a class of enzymes that can cleave isopeptide bond formed between the C-terminal carboxylate of ubiquitin and a lysine side-chain amino group on the target protein. Among them, ubiquitin specific proteases (USPs) constitute the largest DUB family. Human USPs are emerging as promising targets for pharmacological intervention because of their connection to a number of human diseases, including prostate, colon and breast cancer (1, 2), pediatric acute lymphoblastic leukemia (3), and familial cylindromatosis (4). The advantage of inhibiting USPs lies in the potential specificity of therapeutic intervention that can lead to better efficacy and reduce nonspecific side effects. In a collaboration between the University of Delaware and the NIH Chemical Genomics Center, a high-throughput screen assay was developed to screen for USP1/UAF1 inhibitors. This miniaturized assay has a fluorescent read-out and is used to screen the NIH Molecular Libraries Small Molecule Repository (MLSMR) in order to identify a small molecule that inhibits USP1. NIH Chemical Genomics Center [NCGC] NIH Molecular Libraries Probe Centers Network [MLPCN] MLPCN Grant: DA030552 Assay Submitter (PI): Zhihao Zhuang, University of Delaware 1. Priolo, C., et al. (2006) The isopeptidase USP2a protects human prostate cancer from apoptosis. Cancer Res 66, 8625-8632 2. Popov, N., et al. (2007) The ubiquitin-specific protease USP28 is required for MYC stability. Nat Cell Biol 9, 765-774 3. De Pitta, C., et al. (2005) A leukemia-enriched cDNA microarray platform identifies new transcripts with relevance to the biology of pediatric acute lymphoblastic leukemia. Haematologica 90, 890-898 4. Kovalenko, A., et al. (2003) The tumour suppressor CYLD negatively regulates NF-kappaB signalling by deubiquitination. Nature 424, 801-805
3 microliters of reagents (buffer in columns 3 and 4 as negative control and 1nM USP1/UAF1 complex in columns 1, 2, and 5-48) are dispensed into Greiner black solid bottom 1536-well assay plates. Compounds are then transferred via Kalypsys pin tool equipped with 1536-pin array (10nl slotted pins, V&P Scientific, San Diego, CA). Following an incubation step of 15 min at room temperature, 1ul of Ub-Rho substrate (150nM final concentration) is added to initiate the reaction. The plates are immediately centrifuged at 1000 rpm for 15 seconds, and subsequently transferred to a ViewLux high-throughput CCD imager (PerkinElmer) wherein kinetic measurements of fluorescence are acquired using 480 nm excitation/540 nm emission filter set (6 reads every 60 seconds, see Table 1). All reagents are diluted in an assay buffer consisting of 50mM HEPES (pH 7.8), 0.5mM EDTA, 0.1 mg/ml BSA, 1mM TCEP, and 0.01% Tween-20.
% is set by controls: 0 for no effect and ±100 for the full control effect; potency is the fitted concentration of half-maximal effect.
Note: nearly all actives have a fitted effect of over 60% in size.

Chains of the proteins cited; added tags and fusions are not shown.
UniProt O94782, whole entry, looked up: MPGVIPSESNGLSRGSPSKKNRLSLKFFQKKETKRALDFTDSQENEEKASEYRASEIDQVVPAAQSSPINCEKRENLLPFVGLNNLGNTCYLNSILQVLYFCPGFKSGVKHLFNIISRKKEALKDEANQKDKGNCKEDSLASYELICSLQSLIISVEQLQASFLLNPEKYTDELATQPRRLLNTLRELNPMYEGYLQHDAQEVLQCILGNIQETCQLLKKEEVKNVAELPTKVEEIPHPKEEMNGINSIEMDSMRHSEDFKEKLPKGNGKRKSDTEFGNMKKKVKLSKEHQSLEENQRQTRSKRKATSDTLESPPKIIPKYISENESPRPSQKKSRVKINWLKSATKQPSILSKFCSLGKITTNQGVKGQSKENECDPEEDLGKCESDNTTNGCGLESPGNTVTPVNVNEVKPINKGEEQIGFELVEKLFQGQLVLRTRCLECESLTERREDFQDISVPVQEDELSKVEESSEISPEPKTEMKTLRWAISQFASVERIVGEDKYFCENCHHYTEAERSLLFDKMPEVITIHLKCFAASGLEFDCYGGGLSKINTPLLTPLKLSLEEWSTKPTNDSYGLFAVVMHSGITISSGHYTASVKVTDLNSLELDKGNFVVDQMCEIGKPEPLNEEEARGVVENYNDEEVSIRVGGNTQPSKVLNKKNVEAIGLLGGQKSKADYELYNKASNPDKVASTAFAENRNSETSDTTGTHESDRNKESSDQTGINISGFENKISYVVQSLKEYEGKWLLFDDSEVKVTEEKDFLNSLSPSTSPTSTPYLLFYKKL

SMILES | activity change, negative = inhibition | Potency
CP(=O)(OCCOc1ccccc1)OCCOc1ccccc1 | inactive: 4.58% | 
CCCCCCCCCCCCCCCC1C[N+](C)(C)CCOP(C)(=O)O1 (centres undefined) | inactive: -8.72% | 
CP(=O)(Nc1ccc(Cl)cc1Cl)Oc1ccccc1 (centres undefined) | inactive: -2.29% | 
COc1ccc(OP(C)(=O)Nc2ccccc2Br)cc1 (centres undefined) | inactive: -11.1% | 
COc1ccccc1OP(C)(=O)Nc1ccc(C)c(C)c1 (centres undefined) | inactive: 2.03% | 
CCc1ccc(OP(C)(=O)O)cc1 | inactive: 1.6% | 
CP(=O)(Nc1ccccn1)Oc1ccccc1 (centres undefined) | inactive: 0.952% | 
COc1ccccc1OP(C)(=O)Nc1ccc(C)cc1C (centres undefined) | inactive: -12.5% | 
Cc1c(NP(C)(=O)Oc2ccc(C(C)C)cc2)c(=O)n(-c2ccccc2)n1C (centres undefined) | inactive: -18.2% | 
CN(C)CCOC(=O)C(O)(c1ccccc1)C1CCCC1 (centres undefined) | inactive: -22.9% | 
COc1ccc(OP(C)(=O)Nc2ccccn2)cc1 (centres undefined) | inactive: -14.1% | 
COc1ccccc1OP(C)(=O)Nc1ccc(Br)cc1 (centres undefined) | inactive: -14.7% | 
CN(C)C(=O)c1c([N+](=O)[O-])cc([N+](=O)[O-])cc1[N+](=O)[O-] | inactive: -23.7% | 
CP(=O)(Nc1ccc(Cl)cc1)Oc1ccc(F)cc1 (centres undefined) | inactive: 0.0077% | 
CC(C)(C)c1ccc(OP(C)(=O)O)cc1 | inactive: -0.936% | 
COc1ccccc1OP(C)(=O)Nc1ccccc1Br (centres undefined) | inactive: -6.45% | 
CP(=O)(Oc1ccccc1)N1CCOC1=O (centres undefined) | inactive: -8.48% | 
CCc1ccc(OP(C)(=O)Nc2cccnc2)cc1 (centres undefined) | inactive: -11.5% | 
COc1ccccc1OP(C)(=O)Nc1c(C)n(C)n(-c2ccccc2)c1=O (centres undefined) | inactive: -16.6% | 
O=C(OCCCN1CCCC1)C(O)(c1ccccc1)C1CCCCC1 (centres undefined) | inactive: 0.651% | 
CCN(CC)CC(O)COC(=O)C(O)(c1ccccc1)C1CCCCC1 (centres undefined) | inactive: -2.68% | 
COc1ccc(OP(C)(=O)Nc2ccc(Br)cc2)cc1 (centres undefined) | inactive: -20% | 
CP(=O)(OC12CC3CC(CC(C3)C1)C2)OC12CC3CC(CC(C3)C1)C2 | inactive: -13.8% | 
Nc1ccc2c(ccc3cccnc32)n1.O=[N+]([O-])c1cc([N+](=O)[O-])c(O)c([N+](=O)[O-])c1 | inactive: -23.6% | 
Cc1c(C(c2ccc3c(c2)OCO3)c2c(C)n(C)n(-c3ccccc3)c2=O)c(=O)n(-c2ccccc2)n1C.O=[N+]([O-])c1cc([N+](=O)[O-])c(O)c([N+](=O)[O-])c1 | inactive: -14.2% | 

SMILES | activity change, negative = inhibition | Potency
Cc1cc(-c2cccc3ccccc23)c(C)cn1.O=[N+]([O-])c1cc([N+](=O)[O-])c(O)c([N+](=O)[O-])c1 | inactive: -19.1% | 
O=[N+]([O-])c1ccc(OP2(=O)COCCO2)cc1 (centres undefined) | inactive: -12.9% | 
COc1ccc(NP(C)(=O)Oc2ccccc2OC)cc1 (centres undefined) | inactive: -5.4% | 
CN(C)CCOC(=O)C(O)(c1ccccc1)C1CCCCC1 (centres undefined) | inactive: 0.465% | 
COc1ccc(OP(C)(=O)Nc2cccc(Br)c2)cc1 (centres undefined) | inactive: -12.2% | 
Cc1ccccc1NP(C)(=O)Nc1ccccc1C | inactive: -17.3% | 
CP(=O)(Nc1ccc2c(c1)OCCO2)Oc1ccccc1 (centres undefined) | inactive: -1.28% | 
CCOP(C)(=S)SCC(=O)NC(C)(CC)C(=O)O (centres undefined) | inactive: -5.12% | 
O=C(OCCN1CCN(CCOCc2ccccc2)CC1)C(O)(c1ccccc1)c1ccccc1 | inactive: -3.81% | 
CC(C)c1ccc(OP(C)(=O)Nc2ccc(SC(F)(F)F)cc2)cc1 (centres undefined) | inactive: -22.7% | 
CP(=O)(Nc1ccccc1F)Oc1ccccc1 (centres undefined) | inactive: 9.74% | 
CCCCCOc1ccc(NP(C)(=O)Oc2ccc(Cl)cc2Cl)cc1 (centres undefined) | inactive: -13.7% | 
CP(=O)(Nc1ccccc1)Oc1ccc(F)cc1 (centres undefined) | inactive: -8.85% | 
CCN(CC)CCCOC(=O)C(O)(c1ccccc1)C1CCCCC1 (centres undefined) | inactive: -15.8% | 
CCOC(=O)c1ccc(NP(C)(=O)Oc2ccc(F)cc2)cc1 (centres undefined) | inactive: -22% | 
CC1=NCCc2c1[nH]c1ccccc21.O=[N+]([O-])c1cc([N+](=O)[O-])c(O)c([N+](=O)[O-])c1 | inactive: -10.2% | 
CP(=O)(Nc1cccc(Br)c1)Oc1ccccc1 (centres undefined) | inactive: -17.6% | 
Cc1cc(C)cc(OP(C)(=O)Nc2ccccn2)c1 (centres undefined) | inactive: 4.12% | 
Cc1ccc(C)c(NP(C)(=O)Oc2ccccc2)c1 (centres undefined) | inactive: -3.36% | 
Cc1cc(C)cc(OP(C)(=O)Nc2ccc(C)cc2C)c1 (centres undefined) | inactive: -5.06% | 
CCOC(=O)c1ccc(NP(C)(=O)Oc2cc(C)cc(C)c2)cc1 (centres undefined) | inactive: -26.4% | 
COc1ccccc1OP(C)(=O)Nc1cccc(Br)c1 (centres undefined) | inactive: -19.3% | 
Cc1nc2ccc3ccccc3c2s1.O=[N+]([O-])c1cc([N+](=O)[O-])c(O)c([N+](=O)[O-])c1 | inactive: -23.9% | 
O=[N+]([O-])c1cc([N+](=O)[O-])c(-c2cnn(-c3ccccc3)c2)c([N+](=O)[O-])c1 | inactive: -2.33% | 
O=[N+]([O-])c1cc([N+](=O)[O-])c(-n2nnc3ccccc32)c([N+](=O)[O-])c1 | inactive: -3.91% | 

SMILES | activity change, negative = inhibition | Potency
CN1CCCCC1COC(=O)C1(O)c2ccccc2CCc2ccccc21 (centres undefined) | inactive: 7.5% | 
COc1ccccc1OP(C)(=O)Nc1c(C)cccc1C (centres undefined) | inactive: -10.3% | 
O=[N+]([O-])c1cc([N+](=O)[O-])c(Nc2nnnn2CCO)c([N+](=O)[O-])c1 | inactive: -2.98% | 
CC1=C2N=C(C=C3N=C(C(C)=C4[N-][C@@](C)([C@@H]5N=C1[C@](C)(CCC(=O)NC[C@@H](C)OP(=O)([O-])O[C@H]1[C@@H](O)[C@@H](n6cnc7cc(C)c(C)cc76)O[C@@H]1CO)[C@H]5CC(N)=O)[C@@](C)(CC(N)=O)[C@@H]4CCC(N)=O)[C@@](C)(CC(N)=O)[C@@H]3CCC(N)=O)C(C)(C)[C@@H]2CCC(N)=O.[C-]#N.[Co+3] |  | active: 8.91 µM
COc1ccccc1OP(C)(=O)Nc1ccccc1 (centres undefined) | inactive: -8.99% | 
CP(=O)(Nc1ccccc1Br)Oc1ccccc1 (centres undefined) | inactive: -11.4% | 
CP(=S)(Nn1cnnc1)Oc1ccccc1 (centres undefined) | inactive: 0.3% | 
CP(=O)(Nc1ccccn1)Oc1ccc(Cl)cc1 (centres undefined) | inactive: -2.47% | 
CCOP(C)(=S)SCC(=O)NC(C)C(=O)O (centres undefined) | inactive: -13.2% | 
O=[N+]([O-])c1cc([N+](=O)[O-])c(O)c([N+](=O)[O-])c1.c1ccc(Oc2ccncc2)cc1 | inactive: -2.78% | 
CCOC(=O)c1ccc(NP(C)(=O)Oc2ccc(OC)cc2)cc1 (centres undefined) | inactive: -16.8% | 
CCc1ccc(OP(C)(=O)N2CCN(c3ccc([N+](=O)[O-])cc3)CC2)cc1 (centres undefined) | inactive: -13.5% | 
CP(=O)(NC(=O)Nc1ccccc1)Oc1ccccc1 (centres undefined) | inactive: 0.411% | 
CP(=O)(Oc1ccccc1)OC(c1ccccc1)C(F)(F)F (centres undefined) | inactive: -7.22% | 
CCN(CC)CCCOC(=O)C(O)(c1ccccc1)c1ccccc1 | inactive: 0.473% | 
COc1ccccc1OP(C)(=O)Nc1cc(Cl)ccc1C (centres undefined) | inactive: -16.9% | 
COc1ccc(OP(C)(=O)Nc2cccc(F)c2)cc1 (centres undefined) | inactive: -15% | 
Cc1cc(C)cc(OP(C)(N)=O)c1 (centres undefined) | inactive: -14.2% | 
CCOC(=O)c1ccc(NP(C)(=O)Oc2ccccc2)cc1 (centres undefined) | inactive: -16.9% | 
COc1ccccc1OP(C)(=O)Nc1ccc(C)cc1 (centres undefined) | inactive: -1.58% | 
Cc1ccc(NP(C)(=O)Oc2ccccc2)c(C)c1 (centres undefined) | inactive: -0.236% | 
Cc1cccc(C)c1OP(C)(N)=O (centres undefined) | inactive: -8.26% | 
O=[N+]([O-])c1ccc2c(c1)C=Nc1ccccc1O2 | inactive: -4.72% | 
O=[N+]([O-])c1cc([N+](=O)[O-])c(Nc2cccnc2)c([N+](=O)[O-])c1 | inactive: -35% | 

Source: PubChem BioAssay AID743255 (National Center for Advancing Translational Sciences (NCATS), 2014)
